Assay [1] concerns 293T cells stably expressing split RL reporters. Briefly: Cell Titer-Blue cell proliferation assay. The procedure: Inhibition of cell proliferation at 20 μM was determined by cell-titer blue assays and toxic compounds were eliminated. The IC50 values for inhibition of bioluminescence signals (BLI) in cells stably expressing Hsp90(α/β)/p23 split RL reporters and the inhibition of cell proliferation for the top 19 compounds are shown in Table 1, Example 15, and their structures are shown in FIGS. 1A-1D.
(§1) Baseline complemented RL activities were determined 90 mins after addition of 20 μl of ENDUREN® (10 μM final concentration) (Promega, Madison, Wis.) using the Analyst GT (Molecular Device, Sunnyvale, Calif.), with an acquisition time of 0.2 sec per well. Cells were incubated with compounds for 24 h prior to re-determination of complemented RL activities, and normalized to the mean RL activities of untreated cells in columns 1-2. Another small molecule chemical library with 30,176 compounds (SPECS, Wakefield, R.I.) was also used in screening modulators of Hsp90(α/β)/p23 inhibitors (at 8.3 μM, one drug per well for initial screening). For dose response/confirmation assay the compounds were tested in duplicate in an 8 point (0.156-20 μM) dose response assay for RL activities for both Hps90(α/β)/p23 interactions. The effect of each compound on cell proliferation at 20 μM was determined using Cell Titer-Blue assay in duplicate wells.
(§2) IC50 was defined as the concentration of the compound required to inhibit bioluminescence signals by 50%, relative to carrier control treated 293T cells stably expressing Hsp90α/p23 split RL reporters. IC50 was defined as the concentration of the compound required to inhibit bioluminescence signals by 50%, relative to carrier control treated 293T cells stably expressing Hsp90β/p23 split RL reporters. % Inhibition of 293T cells stably expressing Hsp90</p23 split RL reporters by each compound at 20 μM was determined by CELL TITER BLUE ASSAY®.

Sequences of proteins named here, by UniProt entry; tags and fusion partners are left off.
UniProt P08238, whole entry: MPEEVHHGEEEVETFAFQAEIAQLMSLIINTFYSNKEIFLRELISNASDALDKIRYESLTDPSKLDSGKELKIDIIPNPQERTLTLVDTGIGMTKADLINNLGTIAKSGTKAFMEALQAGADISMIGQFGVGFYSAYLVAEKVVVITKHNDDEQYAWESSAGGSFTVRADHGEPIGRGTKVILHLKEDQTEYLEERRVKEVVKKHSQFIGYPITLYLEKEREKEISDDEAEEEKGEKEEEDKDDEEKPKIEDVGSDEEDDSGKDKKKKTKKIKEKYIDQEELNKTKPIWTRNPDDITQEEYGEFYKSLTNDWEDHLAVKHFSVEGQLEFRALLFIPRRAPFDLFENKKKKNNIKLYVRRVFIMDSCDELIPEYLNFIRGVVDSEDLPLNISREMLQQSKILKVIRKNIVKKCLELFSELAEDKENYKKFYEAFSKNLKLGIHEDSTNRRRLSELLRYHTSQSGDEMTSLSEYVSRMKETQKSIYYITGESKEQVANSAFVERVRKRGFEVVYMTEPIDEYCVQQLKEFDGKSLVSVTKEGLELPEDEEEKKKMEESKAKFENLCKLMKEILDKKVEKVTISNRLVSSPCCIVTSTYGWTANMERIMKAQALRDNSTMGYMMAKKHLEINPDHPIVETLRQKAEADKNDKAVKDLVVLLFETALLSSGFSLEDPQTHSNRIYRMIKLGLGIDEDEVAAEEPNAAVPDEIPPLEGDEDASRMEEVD

A further assay deals with Hsp90α/p23 interactions (Homo sapiens, UniProt P07900). The experiment in a line: HTS dose response, 293T cells stably expressing Hsp90α/p23 split RL reporters. To be noted: read-out: IC50 (Hsp90α/p23); inhibition of bioluminescence signals by 50% vs carrier control; 8 point dose response 0.156-20 μM; 24 h. As for the experimental part: (§3) Novel Hsp90 inhibitors using a commercial 30,176 small molecule chemical compound library with unknown targets and molecular mechanisms (FIG. 9B) were also identified. 293T cells stably expressing Hsp90α/p23 or Hsp90β/p23 split RL reporters were treated with each compound at 8.3 μM.
as §1, §2

Another assay has as its target Hsp90β/p23 interactions (Homo sapiens, UniProt P08238). The experiment in a line: HTS dose response, 293T cells stably expressing Hsp90β/p23 split RL reporters. To be noted: read-out: IC50 (Hsp90β/p23); inhibition of bioluminescence signals by 50% vs carrier control; 8 point dose response 0.156-20 μM; 24 h. As for the experimental part: as §3, §1, §2
Assay [2] relates to Hsp90 client proteins (Raf-1, total and phosphorylated Akt). Briefly: Western blotting of Hsp90 client proteins in 293T cells. To be noted: 5 μM, 24 h. The procedure: FIG. 5A is a digital image of a western blot analysis illustrating the effect of lead compounds on the expression of Hsp90 client proteins. 293T cells stably expressing Hsp90(α/β)/p23 split reporters were treated with carrier control or compounds CP1, CP9, or CP18 (5 μM each) for 24 h. The known Hsp90 inhibitor PU-H71 (2 μM) was used as a positive control. The expression of Hsp90 client proteins (Raf-1, total and phosphorylated Akt) was determined by western blotting. α-Tubulin was used as a loading control.
(§4) Cells treated with PU-H71 (2 μM) served as a positive control. […] PU-H71 decreased levels of Raf-1, pAkt and total Akt, as expected. The disruption of endogenous Hsp90(α/β)/p23 interactions by CP9 and CP18 was also confirmed by co-immunoprecipitation (FIG. 5B).
To validate the mechanisms of the lead compounds and their analogues for inhibition of Hsp90(α/β)/p23 interactions, 293T cells stably expressing the Hsp90(α/β)/p23 split reporters were treated with 5 μM of CP1, CP9 and CP18 or carrier control for 24 h. Cells treated with 2 μM of PU-H71 served as a positive control. Western blotting of Hsp70, phosphorylated and total Akt and co-immunoprecipitation of Hsp90(α/β)/p23 interactions was performed as described Inglese et al., (2006) Proc. Nat. Acad. Sci. U.S.A. 103: 11473-11478, incorporated herein by reference in its entirety. […]

Assay [3] relates to Hsp90(α/β)/p23 interactions. Briefly: BLI of lead compounds in intact 293T cells with split RL reporters. To be noted: 24 h; normalized for cell number and carrier control. The procedure:
FIG. 4A illustrates a dose-dependent decrease in bioluminescence signals in 293T cells stably expressing Hsp90α/p23 and Hsp90β/p23 split RL reporters treated with compound CP1 at the indicated dose for 24 h (left). Bioluminescence signals were quantified and normalized for cell number and that of carrier control treated cells (right). Results were expressed as mean±S.E.M.
To determine the effect of lead compounds on disruption of Hsp90(α/β)/p23 interactions in intact cells, 3.5×10^4 293T cells stably transfected with split RL reporters as described in Chan et al., (2008) Cancer Res. 68: 216-226, were plated in each well in the 96-well black wall plate (Costar, Corning, N.Y.) and allowed to attach for 24 h, prior to treatment with different concentrations of the lead compounds for 24 h. The 10 μg/ml of ENDUREN® (in […] of cell culture medium) was added to each well for 1.5 h and RL activities were determined. BLI signals were normalized to that of cell number for each well (determined by Alamar Blue assay (Invitrogen, Carlsbad, Calif.)), prior to normalization to carrier control-treated cells.

For assay [4], the system named is endogenous Hsp90(α/β)/p23 interactions. Briefly: Co-immunoprecipitation of Hsp90(α/β)/p23. The note with it: 5 μM, 24 h, 293T cells. The procedure: FIG. 5B is a digital image of a western blot analysis illustrating the effects of compounds CP1, CP9 and CP18 on disruption of Hsp90α/p23 and Hsp90β/p23 as determined by co-immunoprecipitation using antibodies against p23 and probing with Hsp90α- and Hsp90β-specific antibodies. The blot was probed with antibodies against p23 to ensure similar immunoprecipitation efficiency. Cells treated with 2 μM of PU-H71 served as a positive control.
as §4
To validate the mechanisms of the lead compounds and their analogues for inhibition of Hsp90(α/β)/p23 interactions, 293T cells stably expressing the Hsp90(α/β)/p23 split reporters were treated with 5 μM of CP1, CP9 and CP18 or carrier control for 24 h. Cells treated with 2 μM of PU-H71 served as a positive control. Western blotting of Hsp70, phosphorylated and total Akt and co-immunoprecipitation of Hsp90(α/β)/p23 interactions was performed as described Inglese et al., (2006) Proc. Nat. Acad. Sci. U.S.A. 103: 11473-11478, incorporated herein by reference in its entirety. The expression of Raf-1 was determined using rabbit polyclonal antibodies against Raf-1 (0.5 μg/ml, Abcam).

Regarding `Cc1cc(C)c(S(=O)(=O)NCCc2ccncc2)c(C)c1`, the “% Inhibition of Cell Proliferation (20 μM)” value (“% Inhibition” below) in assay [1] is recorded as 11%. For the same molecule, the results for the IC50 on Hsp90α/p23 interactions and on Hsp90β/p23 interactions were 1200 nM and 2400 nM, respectively.

`Cn1c(=O)c2[nH]c(Cc3ccc(C(F)(F)F)cc3)nc2n(C)c1=O`: in assay [1], the “% Inhibition” value worked out at 45%. For the same molecule, the IC50 on Hsp90α/p23 interactions was 1900 nM; at Hsp90β/p23 interactions, 2900 nM.

Consider `Cn1c(=O)c2c(ncn2Cc2ccc(C(C)(C)C)cc2)n(C)c1=O`, for which the “levels of Hsp90 client proteins (pAkt/total Akt, Raf-1)” value in assay [2] is “did not significantly decrease”. In assay [1], the “% Inhibition” value was 44%. Also, the “bioluminescence signals in 293T cells expressing Hsp90α/p23 and Hsp90β/p23 split RL reporters” value in assay [3] was “dose-dependent decrease”. For the same molecule, the IC50 on Hsp90α/p23 interactions worked out at 200 nM; at Hsp90β/p23 interactions, 500 nM.

On to `CC1CCN(S(=O)(=O)c2ccc(NC(=O)c3ccc(-c4ccccc4)cc3)cc2)CC1`, for which the “% Inhibition” value in assay [1] is 10%. Besides, the values for the IC50 at Hsp90α/p23 interactions and on Hsp90β/p23 interactions were 2100 nM and 8100 nM, respectively.

Turning to `COc1ccc(CC(=O)Nc2nc(-c3ccccc3)c(C)s2)cc1OC`, the “% Inhibition” value in assay [1] is listed as 55%. Further, the “bioluminescence signals in 293T cells expressing Hsp90α/p23 and Hsp90β/p23 split RL reporters” value in assay [3] is “dose-dependent decrease”. Besides, the IC50 at Hsp90α/p23 interactions worked out at 70 nM; on Hsp90β/p23 interactions it was 40 nM. Further, the “disruption of endogenous Hsp90(α/β)/p23 interactions by co-immunoprecipitation” value in assay [4] was “disruption of endogenous Hsp90(α/β)/p23 interactions”.

`COc1cc(C)c(S(=O)(=O)NOCc2ccccc2)c(C)c1`: the “% Inhibition” value in assay [1] was determined as 10%. The IC50 stood at 1400 nM at Hsp90α/p23 interactions and 2300 nM on Hsp90β/p23 interactions.

With `Cc1nn(C)c(C)c1CN(C)S(=O)(=O)c1ccc2ccccc2c1`, the “% Inhibition” value in assay [1] was found to be 50%. Also, the IC50 at Hsp90α/p23 interactions is 300 nM; on Hsp90β/p23 interactions, 800 nM.

Turning to `CC(C)Cc1ccc(C(C)C(=O)Nc2cccnc2)cc1` (stereo not shown), the “% Inhibition” value in assay [1] stood at 35%. For the same molecule, the IC50 on Hsp90α/p23 interactions came to 1400 nM; at Hsp90β/p23 interactions, 3100 nM.

With `COc1ccc(NC(=O)COc2cncc(C(C)(C)C)c2)cc1OC`, the “% Inhibition” value in assay [1] was 43%. Also, the IC50 came out at 1800 nM at Hsp90α/p23 interactions and 2800 nM on Hsp90β/p23 interactions.

As for `Cc1nc2sccn2c1C(=O)Nc1nc(-c2ccc(Cl)cc2)cs1`, the “% Inhibition” value in assay [1] stood at 45%. The IC50 on Hsp90α/p23 interactions stood at 800 nM; at Hsp90β/p23 interactions it was 2400 nM.

Regarding `COc1ccc(CC(=O)Nc2sc3c(c2C#N)CCCC3)cc1OC`, the “% Inhibition” value in assay [1] is on record as 27%. The IC50 on Hsp90α/p23 interactions is 2300 nM; at Hsp90β/p23 interactions, 5700 nM.

Turning to `Cc1cc(-c2ccc(NC(=O)c3ccncc3)c(C)c2)ccc1NC(=O)c1ccncc1`, the “% Inhibition” value in assay [1] amounted to 46%. In addition, the figures for the IC50 on Hsp90α/p23 interactions and on Hsp90β/p23 interactions were 1400 nM and 1700 nM, respectively.

For `COc1ccc(S(=O)(=O)NCc2ccncc2)c(Cl)c1Cl`, the “% Inhibition” value in assay [1] is 32%. Moreover, the IC50 on Hsp90α/p23 interactions was 2700 nM; on Hsp90β/p23 interactions, 6000 nM.

Regarding `CN(C)c1ccc(C2C(C#N)=C(N)Oc3[nH]nc(-c4cccc5ccccc45)c32)cc1` (stereo not shown), the “% Inhibition” value in assay [1] came out at 13%. Moreover, the IC50 on Hsp90α/p23 interactions worked out at 3900 nM; on Hsp90β/p23 interactions, 17500 nM.

Turning to `Cc1cc(C)cc(NS(=O)(=O)c2ccc(NC(=O)c3ccc(F)cc3)cc2)c1`, the “% Inhibition” value in assay [1] came to 33%. Also, the IC50 turned out to be 1200 nM at Hsp90α/p23 interactions and 1600 nM on Hsp90β/p23 interactions.
